The values that follow come from article PMC4575208, “Characterization of Flavin-Containing Opine Dehydrogenase from Bacteria” (PLoS ONE, 2015).

Protein sequences, listed by entry. Tags and fused reporters are not part of them.
UniProt Q88EK6, entry or part of it: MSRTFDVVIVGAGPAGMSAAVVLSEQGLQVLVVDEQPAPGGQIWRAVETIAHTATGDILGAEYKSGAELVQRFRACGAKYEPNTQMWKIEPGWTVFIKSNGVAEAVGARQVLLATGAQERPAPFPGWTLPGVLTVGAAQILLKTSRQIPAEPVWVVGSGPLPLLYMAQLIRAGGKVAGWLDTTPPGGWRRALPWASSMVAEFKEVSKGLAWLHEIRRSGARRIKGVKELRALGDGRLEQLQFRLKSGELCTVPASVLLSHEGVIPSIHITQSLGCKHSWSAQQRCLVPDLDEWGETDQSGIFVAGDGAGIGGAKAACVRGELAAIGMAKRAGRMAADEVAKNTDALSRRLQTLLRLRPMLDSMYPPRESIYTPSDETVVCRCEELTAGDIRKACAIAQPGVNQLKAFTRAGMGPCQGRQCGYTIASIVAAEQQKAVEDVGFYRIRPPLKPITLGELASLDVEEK
UniProt Q88EK5, entry or part of it: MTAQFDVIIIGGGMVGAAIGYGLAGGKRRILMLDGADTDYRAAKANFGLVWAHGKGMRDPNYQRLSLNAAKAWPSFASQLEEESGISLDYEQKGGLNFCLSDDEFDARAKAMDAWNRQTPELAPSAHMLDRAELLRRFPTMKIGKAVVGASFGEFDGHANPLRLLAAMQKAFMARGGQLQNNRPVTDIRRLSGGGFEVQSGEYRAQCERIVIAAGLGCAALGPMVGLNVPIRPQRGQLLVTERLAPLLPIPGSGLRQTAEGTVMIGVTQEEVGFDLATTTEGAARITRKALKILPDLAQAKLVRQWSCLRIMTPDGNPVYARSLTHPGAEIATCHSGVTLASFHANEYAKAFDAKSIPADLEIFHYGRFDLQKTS

The target in test [1] is T1, PpOdhA (alpha-subunit of PpOpnDH) (Pseudomonas putida, UniProt Q88EK6).
T1 construct: gene ooxA

Test [2] has as its target T2, PpOdhB (beta-subunit of PpOpnDH) (Pseudomonas putida, UniProt Q88EK5).
T2 construct: gene ooxB

Consider `Cc1cc2nc3c(=O)[nH]c(=O)nc-3n(C[C@H](O)[C@H](O)[C@H](O)COP(=O)(O)OP(=O)(O)OC[C@H]3O[C@@H](n4cnc5c(N)ncnc54)[C@H](O)[C@@H]3O)c2cc1C` [FAD], for which the “co-purified flavin released by heat denaturation and identified by HPLC; absorpt” value is “Only FAD was extracted from (almost) inactive OdhA, OdhB, OdhAB (co-expression of OdhA+B), OdhBC, and OdhAC” in test [1]; “Only FAD was extracted from (almost) inactive OdhA, OdhB, OdhAB (co-expression of OdhA+B), OdhBC, and OdhAC” in test [2].
